Values quoted from earlier work as cited in US20240018207A1, “INTERFERON TAU FC-FUSION PROTEINS AND METHODS FOR TREATING CORONAVIRUS INFECTIONS” (Southlake Pharmaceuticals, Inc., priority 2020, published 2024).

Settings: mice fed with interferon; cited from earlier work

IFNB: IFN-β, type I interferon
toxicity / lymphocyte depression: significant levels of toxicity
